{
  "source": "patent US20260337245A1",
  "about": "“POLYPEPTIDE OR ANALOG THEREOF AND USE THEREOF” (Shenzhen Bay Laboratory, priority 2024, published 2026)",
  "key": {"[1]": {"conditions": "background; cited from earlier work"}, "CTR": {"biological_target": "T1, CTR (Homo sapiens, UniProt P30988)", "T1 construct": "expressed in transfected cells", "T1 sequence (P30988 25-474)": "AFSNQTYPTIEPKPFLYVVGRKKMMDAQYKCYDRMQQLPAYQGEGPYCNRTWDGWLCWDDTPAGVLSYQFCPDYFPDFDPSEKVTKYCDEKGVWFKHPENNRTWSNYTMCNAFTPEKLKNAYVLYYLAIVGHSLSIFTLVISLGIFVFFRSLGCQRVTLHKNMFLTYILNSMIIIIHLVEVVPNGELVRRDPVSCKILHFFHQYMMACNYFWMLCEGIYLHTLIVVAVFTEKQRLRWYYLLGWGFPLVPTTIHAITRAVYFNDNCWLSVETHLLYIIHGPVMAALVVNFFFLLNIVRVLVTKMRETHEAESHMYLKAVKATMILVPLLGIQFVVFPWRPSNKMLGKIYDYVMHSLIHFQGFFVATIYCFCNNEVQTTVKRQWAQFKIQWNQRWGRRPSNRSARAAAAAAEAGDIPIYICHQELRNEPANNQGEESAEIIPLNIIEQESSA", "assay": "HTRF cAMP assay, CTR", "type": "cell-based", "conditions": "HEK293/pGM-CREB-L-Luc/CTR pool, read-out: IC50 of receptor CTR", "source_text": "2. The polypeptide derivatives prepared in Example 1 and Example 2 of the present disclosure can bind to the target AMYR and CTR receptors on the cell membrane, activate the receptors and release cAMP. Therefore, the activity of the analyte can be determined by using an HTRF (homogeneous time-resolved fluorescence) method and using a cAMP detection kit. The specific steps were as follows:\nA stable transfected cell line of HEK293/pGM-CREB-L-Luc/AMY3R pool and HEK293/pGM-CREB-L-Luc/CTR pool was constructed. The polypeptide derivatives (i.e., AMY-001 to AMY-041) prepared in Examples 1 and 2 were subjected to 5-fold serial dilution from a maximum of 1000 nM to prepare a dilution series containing 8 to 11 concentration gradients. Cagrilintide and sCT were selected as positive controls for testing, and a dilution series was prepared according to the same method for testing. The test cell lines were selected and treated with cAMP-specific trypsin for digestion, and then suspended with 3 mL of serum-free DMEM medium by pipetting, and the cells were counted. […] A HTRF value was determined by a chemiluminescence microplate reader, and the results were recorded. […]"}},
  "note": "pEC50: −log10 of the molar value.",
  "data": [
    {"smiles": "CC[C@H](C)[C@H](NC(=O)[C@@H]1CCCN1C(=O)CNC(=O)[C@H](Cc1ccccc1)NC(=O)[C@H](CC(N)=O)NC(=O)[C@H](CC(N)=O)NC(=O)[C@H](CO)NC(=O)[C@H](CO)NC(=O)[C@H](Cc1c[nH]cn1)NC(=O)[C@@H](NC(=O)[C@H](CC(C)C)NC(=O)[C@H](Cc1ccccc1)NC(=O)[C@H](CC(N)=O)NC(=O)[C@H](C)NC(=O)[C@H](CC(C)C)NC(=O)[C@H](CCCNC(=N)N)NC(=O)[C@H](CCC(N)=O)NC(=O)[C@@H](NC(=O)[C@H](C)NC(=O)[C@@H]1CSSC[C@H](NC(=O)[C@@H](N)CCCCN)C(=O)N[C@@H](CC(N)=O)C(=O)N[C@@H]([C@@H](C)O)C(=O)N[C@@H](C)C(=O)N[C@@H]([C@@H](C)O)C(=O)N1)[C@@H](C)O)C(C)C)C(=O)N[C@@H](CC(C)C)C(=O)N1CCC[C@H]1C(=O)N1CCC[C@H]1C(=O)N[C@H](C(=O)N[C@@H](CC(N)=O)C(=O)N[C@H](C(=O)NCC(=O)N[C@@H](CO)C(=O)N[C@@H](CC(N)=O)C(=O)N[C@H](C(=O)N[C@@H](Cc1ccc(O)cc1)C(N)=O)[C@@H](C)O)C(C)C)[C@@H](C)O", "note": "[Pramlintide, reference compound]", "values": [
      {"measurement": "in-vivo half-life", "setting": "[1]", "result": "less than 1 hour"},
      {"measurement": "pEC50", "setting": "CTR", "result": 11.06}
    ]}
  ]
}
